Experimental data from PMC12765074, “Mechanistic insights into enterocin C targeting the undecaprenyl phosphate recycling protein BacA” (The Journal of Biological Chemistry, 2025).

System: EntC2 peptide
Experiment: FIDA, EntC2
Format: binding
Settings: Fluo-EntC1 100 nM, EntC2 added, 0.1% DDM

## CC[C@H](C)[C@H](NC(=O)[C@H](CCCCN)NC(=O)[C@H](CO)NC(=O)[C@H](Cc1ccccc1)NC(=O)[C@@H](NC(=O)[C@H](CO)NC(=O)[C@@H](N)CCC(=O)O)C(C)C)C(=O)NCC(=O)N[C@@H](CC(N)=O)C(=O)N[C@@H](C)C(=O)N[C@H](C(=O)NCC(=O)N1CCC[C@H]1C(=O)N[C@@H](C)C(=O)N[C@@H](C)C(=O)N[C@@H](Cc1ccc(O)cc1)C(=O)N[C@@H](Cc1c[nH]c2ccccc12)C(=O)N[C@H](C(=O)N[C@@H](CC(C)C)C(=O)N[C@@H](CCCCN)C(=O)NCC(=O)N[C@@H](CC(C)C)C(=O)NCC(=O)N[C@@H](CC(N)=O)C(=O)N[C@@H](CCSC)C(=O)N[C@@H](CO)C(=O)N[C@@H](CC(=O)O)C(=O)N[C@H](C(=O)N[C@@H](CC(N)=O)C(=O)N[C@@H](CCC(N)=O)C(=O)N[C@@H](C)C(=O)N[C@@H](CC(=O)O)C(=O)N[C@@H](CCCNC(=N)N)C(=O)N[C@H](C(=O)N[C@@H](CC(N)=O)C(=O)N[C@@H](CCCNC(=N)N)C(=O)N[C@@H](CCCCN)C(=O)N[C@@H](CCCCN)C(=O)N[C@@H](Cc1c[nH]cn1)C(=O)O)[C@@H](C)CC)C(C)C)[C@@H](C)CC)C(C)C (single isomer, unassigned) [EntC1]
  hydrodynamic radius (Rh) with EntC2: did not induce an increase of EntC1 Rh
